# Measured affinities in a library of Ab-14 heavy chain variants

Binding partner: SARS-CoV-2 spike HR2 peptide, sequence PDVDLGDISGINAS.

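The parent was found by panning a naive human phage display library on the peptide. The variants were designed computationally from a first round of random CDR variants and then made and measured. Group labels follow the data file (Ctrl: baseline library sampled from a position-specific scoring matrix, with some repeated check sequences; Rand: our label for a block that the file lists under HC and that is probably the random mutants of the ten best first-round binders; En: ensemble of fine-tuned language models; GP: Gaussian process model; GPLM: also part of the Gaussian process libraries; HC: hill climbing; Gen: genetic algorithm; Gibbs: Gibbs sampling; a sequence that several methods proposed may carry one label only). In AlphaSeq, yeast of one mating type display the scFv and yeast of the other type display the target. Binding brings cells together so that they mate, and sequencing counts the barcode pairs among the diploids. Each replicate has its own calibration line, from reference interactions of the BCL2 family. The assay was run in six technical replicates.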

Parent: Ab-14, a human scFv built as VH, a (GGGGS)3 linker, VL. Only the CDRs of the heavy chain vary.
VH: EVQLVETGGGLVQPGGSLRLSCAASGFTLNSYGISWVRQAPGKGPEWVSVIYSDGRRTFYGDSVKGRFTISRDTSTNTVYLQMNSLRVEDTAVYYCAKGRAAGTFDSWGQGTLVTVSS
VL: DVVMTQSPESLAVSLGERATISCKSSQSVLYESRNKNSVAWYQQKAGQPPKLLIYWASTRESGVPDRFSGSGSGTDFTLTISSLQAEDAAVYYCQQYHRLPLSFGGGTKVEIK

The parent's heavy chain CDRs are GFTLNSYGIS, VIYSDGRRTFYGDSVK, GRAAGTFDS; each variant's own CDRs replace them letter for letter. Values are log10 of the apparent Kd in nM; lower means stronger binding. A mean of the replicates is given; it leaves out those without a signal. An entry "not detected" has no value in the source: the pair was not observed among the diploids in any replicate. This suggests poor binding but is not conclusive. A sequence measured in both rounds can read differently, since the two assays cover different ranges. As a blank, each scFv also met three strains without target: over all heavy chain designs, 1% of these pairings were detected, typically at 2.08 and seldom below 0.84. For each scFv, signals with the empty controls are counted beside the result. In the paper, a design with two or fewer of six values counts as a poor binder.

mean log10 Kd (nM)	seen in	empty controls	CDR-H1	CDR-H2	CDR-H3	group
1.48	6/6	2/18	GFWLNEYGIS	VIYSDGRRTFYHDSVK	GRAAGTFDV	GP_HC
0.03	5/6	0/18	GFDLDEYGIS	VIYADGRRTAYADNVK	GQVAGTFDV	En_Gen
0.44	6/6	1/18	GFELNSYGIS	VIYSDGRRTFYSDSVR	GRYAGTFDS	Ctrl
1.66	6/6	0/18	GFTLNSYGIS	VIYSDGRRTFYGDSVK	GRAAGTFDT	Ctrl
-0.17	6/6	0/18	GFDLDEYGIS	VIYADGRRTFYADSVK	GNVAGTFDT	En_HC
2.39	1/6	1/18	GFTLNKYGIS	VDYSDGRRTFYNDSVK	GRAQGRFDS	Ctrl
-0.52	6/6	0/18	GFDLNEYGIS	VIYADGKRTAYADSVK	GEVAGTFDV	En_Gen
0.72	6/6	1/18	GFELNSYGIS	VIYSDGRRTFYGDSVK	GWVAGTFDK	GP_Gibbs
2.47	1/6	0/18	GFTPNSYGIS	VIYSDGQQTFYGDSVK	GRAAGQFDL	Ctrl
not detected	0/6	0/18	GFNLDEYGIS	VIYADGFRAAYKDKVK	GDDILLGWD	En_Gibbs
1.58	2/6	0/18	GFTLNEYGIS	VIYSDGRRTFYGDSVK	GRNAGTFDW	Ctrl
not detected	0/6	0/18	GFGLNEYGIS	VIYADGVRTAYLQNVK	GIVSGFDQT	En_Gibbs
0.94	6/6	1/18	GFWLNDYGIS	VIYSDGRRTFYGDSVR	GRAAGTFDQ	Ctrl
-0.33	6/6	0/18	GFDLTEYGIS	VIYADGRRVVYQDKVK	GELAGTFDQ	En_Gibbs
0.35	6/6	0/18	GFDLNEYGIS	VIYADGVRTFYTDSVK	GGNAGTFDV	En_HC
-0.11	6/6	0/18	GFDLDEYGIS	VIYADGKRTAYTDSVK	GNVAGTFDL	En_Gen
2.54	1/6	0/18	GFSIDEYGIS	VIYADGMRTAYVESVK	GTIDENITT	En_Gibbs
0.56	5/6	0/18	GFTLNDYGIS	VIYSDGRRTMYGDSVK	GRNAGTFDS	GP_HC
not detected	0/6	0/18	GDTLNSYGIS	VIYADGRRTFYYDSVK	GRAAGTFDF	Ctrl
not detected	0/6	1/18	TFTLNSYGIS	VIYSDGRRTFYGDSVK	GRAAGTFDS	Ctrl
-0.31	6/6	0/18	GFDLNEYGIS	VIYADGKRTAYSDSVK	GNNAGTFDT	En_Gen
1.17	6/6	1/18	HFELNEYGIS	VIYSDGRRTFYGDSVK	GRTAGTFDS	GP_Gen
not detected	0/6	0/18	EFDLQEYGIS	VIYADGKREAYKDNFK	GNGGGVFDA	En_Gibbs
1.62	1/6	0/18	GFDLNSYGIS	VIYSDGRRTFYGDSVK	GRAAGHFCS	GPLM_HC
0.10	6/6	0/18	GFGLNSYGIS	VIYSDGRRTFYGDSVK	GNEAGTFDS	GP_Gibbs
-0.77	6/6	0/18	GFDLDEYGIS	VIYADGMRTAYSDDVK	GNVAGTFDV	En_Gen
-0.28	6/6	0/18	GFTLNEYGIS	VIYSDGRRTFYGDSVK	GHFAGTFDS	GP_HC
0.45	5/6	0/18	GFTLNEYGIS	VIYSDGRRTFYGDSVK	GRAAGTFFQ	GP_HC
0.30	6/6	0/18	GFSLNEYGIS	VIYSDGRRTFYGDQVK	GQTAGTFDS	GP_Gen
not detected	0/6	0/18	GFDLNEYGVS	VIYADGFRTAYTDSVK	GNIFDLIMA	En_Gibbs
0.33	6/6	0/18	GFSLNDYGIS	VIYSDGRRTFYGDSVK	GRTAGTFDR	GPLM_Gen
not detected	0/6	0/18	GNTLDEYGIS	VIYADGVRMAYINKFK	GMYTGTFDQ	En_Gibbs
not detected	0/6	0/18	GFTLNSYGIS	VIYADGRRTFYGDSVK	GQAAGTFWS	GPLM_Gen
1.38	2/6	0/18	GFQLNSYGIS	VIYSDGRRTFYGDKVK	GRTAGTFDS	GP_Gibbs
0.19	6/6	0/18	GFDLNEYGIS	VIYADGRRTFYADSVK	GQNGGTFDV	En_HC
-0.22	6/6	0/18	GFDLNEYGIS	VIYADGRRTFYADSVK	GQAAGTFTV	En_HC
not detected	0/6	0/18	GFDLNEYGIS	VIYADGIRSRYANKVK	GNGAGTLLI	En_Gibbs
1.59	6/6	1/18	GFQLNEYGIS	VIYSDGRRTFYGDSVK	GQAAGTFDD	GPLM_HC
0.14	6/6	0/18	GFTLNEYGIS	VIYSDGRRTFYGDSVK	GQTAGTFDS	GPLM_Gen
0.05	6/6	1/18	GFTLNSYGIS	VIYSDGRRTFYIDSVK	GQVAGTFDA	GPLM_Gibbs
-0.47	6/6	0/18	GFDLNEYGIS	VIYADGMRKYYADSVK	GNVAGTFDQ	En_Gen
-0.09	6/6	0/18	GFNLNEYGIS	VIYADGMRTAYSDSVK	GEVAGTFDV	En_HC
-0.72	1/6	0/18	GFELFSYGIS	VIYSDGRRTFYGDSVK	GRVAGTFDL	Ctrl
1.76	6/6	1/18	GFDLMEYGIS	VIYSDGRRTFYGDSVK	GRAAGTFDS	Ctrl
not detected	0/6	0/18	GFDLNEYGIS	VIYADGRRTFYSDSVK	GQTGGTFDV	En_HC
1.33	6/6	0/18	GFNLNSYGIS	VIYSDGRRTFYGDPVK	GRNAGTFDS	GP_Gen
2.83	1/6	2/18	GFDLNEYGIS	VIYADGMRTRYAQNFK	GYNSSDLTV	En_Gibbs
1.08	6/6	0/18	GFNLDECGIS	VIYADGRRQMYANSVK	GEIGGTFLM	En_Gibbs
-0.39	6/6	0/18	GFDLNEYGIS	VIYADGRRTAYSDSVK	GQTGGTFDE	En_HC
2.59	1/6	0/18	GFDIQDYGIS	VIYADGSRTAYVNSVK	GEQGATYDL	En_Gibbs
-0.51	6/6	1/18	GFDLNEYGIS	VIYADGMRKAYADSVK	GEVAGTFDL	En_Gen
0.53	6/6	1/18	GFDLNEYGIS	VIYADGRRTFYADSVK	GTNAGTFLV	En_HC
1.63	3/6	0/18	GFQLNSYGIS	VIYSDGMRTFYGDSVK	GRIAGTFDS	GP_HC
1.05	6/6	0/18	GFSLNSYGIS	VIYSDGRRTFYGDSVK	GSAAGTFDT	GPLM_Gibbs
1.02	6/6	0/18	GFTLNSYGIS	VIYSDGKRTFYDDSVK	GQLAGTFDS	GPLM_HC
0.78	5/6	0/18	GFTLNSYGIS	VIYSDGRRTFYQDSVK	GRLAGTFDS	Ctrl
not detected	0/6	0/18	GFDLNSYGIS	VIYSDGRRTFYGDSVK	GREAGRFNS	GPLM_HC
0.61	6/6	2/18	GFTLNEYGIS	VIYSDGVRTFYIDSVK	GRAAGTFDS	GP_HC
2.86	1/6	0/18	GFDLEKYGIS	VIYADGIRKEYDQSVK	GQNAGAFTV	En_Gibbs
-0.40	6/6	0/18	GFDLNEYGIS	VIYADGQRTAYADSVK	GQAAGTFDS	En_HC
1.44	4/6	0/18	GFTLNSYLIS	VIYSDGRRTFYSDSVK	GRAGGTFDS	Rand
-0.49	6/6	0/18	GFDLNEYGIS	VIYADGVRKAYIDSVK	GNVAGTFDV	En_Gen
1.99	1/6	1/18	GFNLEEYGIS	VIYADGKRSSVSDSVK	GQLGNAFDL	En_Gibbs
-0.63	6/6	1/18	GFDLNEYGIS	VIYADGRRTAYADSVK	GNAAGTFNV	En_HC
not detected	0/6	0/18	GDKLEDYGIS	VIYADGRRSAYVDNVK	GEYAGYFDV	En_Gibbs
not detected	0/6	0/18	GFNLEEYGIS	VIYADGKRTQYSENVK	GHIGNVRTV	En_Gibbs
-0.41	6/6	0/18	GFDLNEYGIS	VIYADGQRTFYSDSVK	GEIAGTFDV	En_HC
0.98	6/6	0/18	GFDLNSYGIS	VIYSDGRRTFYRDSVK	GRAAVTFDS	GP_HC
not detected	0/6	0/18	GFTVNDYGIS	VIYSDGRRTAYGDSVK	GRAAGYFDS	Ctrl
0.32	5/6	0/18	GFDLGEYGIS	VIYADGRRKGYSDAVK	GINSINVTD	En_Gibbs
1.04	4/6	0/18	GFALNSYGIS	VIYSDGRRTFYGDSVK	GKTAGTFDS	GPLM_Gibbs

For reference, 5 entries of the list once more:

CDR-H1,CDR-H2,CDR-H3,group,mean log10 Kd (nM),seen in,empty controls
GFDLNEYGIS,VIYADGKRTAYSDSVK,GNNAGTFDT,En_Gen,-0.31,6/6,0/18
GFDLNEYGIS,VIYADGRRTFYADSVK,GQAAGTFTV,En_HC,-0.22,6/6,0/18
GFDLDEYGIS,VIYADGRRTFYADSVK,GNVAGTFDT,En_HC,-0.17,6/6,0/18
GFSIDEYGIS,VIYADGMRTAYVESVK,GTIDENITT,En_Gibbs,2.54,1/6,0/18
GFELNSYGIS,VIYSDGRRTFYSDSVR,GRYAGTFDS,Ctrl,0.44,6/6,1/18

From the AlphaSeq antibody data of Li et al. 2023 (doi:10.1038/s41467-023-39022-2), copy in the FLAb collection.